This assay has as its target EU-rituximab (MabThera, sourced and manufactured in Europe) (mouse | human). As to the kind of experiment: ELISA. For orientation: In an ELISA, binding on a coated surface is turned into a signal by an enzyme label.

The chains behind the UniProt entries cited, without tags or fusion partners. Residues count along the entry.
UniProt P02745, 23-245: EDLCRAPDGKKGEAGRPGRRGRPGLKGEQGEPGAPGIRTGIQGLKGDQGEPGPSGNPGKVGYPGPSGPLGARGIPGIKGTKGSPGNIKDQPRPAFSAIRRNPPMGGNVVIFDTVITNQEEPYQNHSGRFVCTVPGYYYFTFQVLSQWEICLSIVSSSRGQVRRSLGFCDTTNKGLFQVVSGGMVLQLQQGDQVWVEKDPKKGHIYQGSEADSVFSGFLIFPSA
UniProt P02746, 28-253: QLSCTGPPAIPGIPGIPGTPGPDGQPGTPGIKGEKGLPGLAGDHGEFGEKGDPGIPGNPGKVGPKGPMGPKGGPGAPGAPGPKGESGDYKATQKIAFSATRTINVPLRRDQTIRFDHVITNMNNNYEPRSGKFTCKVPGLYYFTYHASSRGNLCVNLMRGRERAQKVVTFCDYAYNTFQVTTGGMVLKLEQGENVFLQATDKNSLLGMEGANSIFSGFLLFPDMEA
UniProt P02747, 29-245: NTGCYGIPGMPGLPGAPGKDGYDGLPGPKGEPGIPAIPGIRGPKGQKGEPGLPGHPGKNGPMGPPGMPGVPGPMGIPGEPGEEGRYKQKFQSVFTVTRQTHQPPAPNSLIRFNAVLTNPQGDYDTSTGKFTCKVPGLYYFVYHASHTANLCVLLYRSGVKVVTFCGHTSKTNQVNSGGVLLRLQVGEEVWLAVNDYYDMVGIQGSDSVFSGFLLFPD

Turning to “human C1q (from UniProt P02745;P02746;P02747) (complex)”, the relative C1q-binding activity (by EC50), mean of batches came out at 106%.

Source of the values: PMC6512903.
